{
  "source": "patent US8703098B2",
  "about": "“Labelled adrenomedullin derivatives and their use for imaging and therapy” (Institut de Cardiologie de Montreal, priority 2004, dated 2014)",
  "key": {"[1]": {"assay": "In vivo single-pass pulmonary clearance of 125I-rAM(1-50) in dogs, single bolus indicator-dilution technique", "design": "species or system dog", "conditions": "drug as intravenous bolus of 100 nmol 5 min before second experiment, mean ±S.E.M.", "procedure": "Dogs were anaesthetized and prepared as described in detail in reference, which is hereby incorporated by reference. A catheter was inserted into the carotid artery and positioned just above the aortic valve. This catheter was connected to a peristaltic pump for automated blood withdrawal. Another catheter was placed into the jugular vein and positioned in the right ventricular outflow tract to allow bolus injection of the study tracers. A bolus was prepared by adding 3.3 μCi of 125I-rAM(1-50) (2.9 pmol) to 3 ml of Evans-Blue-dye labelled albumin and 0.9% saline to give a final volume of 6 ml. The mixture was separated into three equal parts for the two successive experiments in each animal and to realize dilution-curve standards. A baseline single-bolus indicator-dilution experiment was performed. After 5 min, CGRP (n=7), hAM(22-52) (n=8) and unlabelled rAM(1-50) (n=9) were administered as an intravenous bolus of 100 nmol and 5 min later a second indicator dilution experiment was performed.\nThe collected samples were processed and indicator-dilution curves constructed and analyzed as described in previously cited reference 13. […]\n(§1) Multiple group comparisons were performed by factorial ANOVA, followed, when a significant interaction was found, by the Bonferroni/Dunn t test. […] In the canine experiments, the effect of drugs on AM extraction was analyzed by two-tailed paired Student's t tests. […]"}, "[2]": {"assay": "Biodistribution and pulmonary retention of 125I-rAM(1-50) in rats after intravenous or intra-arterial injection", "type": "in vivo, rat", "conditions": "drug given 5 min before tracer", "procedure": "(§2) All experimental procedures were performed in accordance with the regulations and ethical guidelines from Canadian Council for the Care of Laboratory Animals, and received approval by the Animal Ethics and Research Committee of the Montreal Heart Institute. Male Sprague-Dawley rats (Charles River), weighing between 400-450 g, were anaesthetized by an initial intramuscular dose of xylazine (10 mg/kg of body weight) and ketamine (50 mg/kg of body weight), followed by an intra-peritoneal injection of heparin (2000 units; Sigma). Catheters were inserted into the right carotid artery and jugular vein. Heart rate and systemic blood pressure were monitored continuously. […] Venous and arterial blood samples (3 ml) were collected and centrifuged (1875 g, 15 min, 4° C.) and the plasma saved for subsequent measurement of irAM (immunoreactive AM). A similar amount of saline was infused into the animals to prevent hypovolaemia.\n(§3) The animals were then killed and the lungs, liver, kidneys (en bloc with the adrenal glands) and heart were removed and gravity drained. […] Results are expressed as a percentage of total radioactivity injected. […]\nas §1"}, "[3]": {"assay": "Plasma kinetics of 125I-rAM(1-50) after single intravenous injection in rats", "type": "in vivo, rat", "conditions": "drug given 5 min before the 125I-rAM(1-50) bolus", "procedure": "as §2, §3, §1"}},
  "data": [
    {"substance": "CGRP: calcitonin gene-related peptide (Phoenix Pharmaceuticals)", "values": [
      {"measurement": "mean single-pass pulmonary extraction of 125I-rAM(1-50) after administration of the drug", "setting": "[1]", "value": "40.6±2.9", "unit": "%"},
      {"measurement": "effect of prior administration on biodistribution of 125I-rAM(1-50)", "setting": "[2]", "value": "did not significantly modify this distribution"},
      {"measurement": "effect of prior administration on pulmonary first-pass retention of 125I-rAM(1-50) (intra-arterial compared with intravenous)", "setting": "[2]", "value": "not affected"},
      {"measurement": "effect of administration prior to radiolabelled rAM(1-50) on its plasma kinetics", "setting": "[3]", "value": "did not modify plasma kinetics"}
    ]}
  ]
}
